Assay results from article PMC11672541, “Evaluation of Subetadex-α-methyl, a Polyanionic Cyclodextrin Scaffold, as a Medical Countermeasure against Fentanyl and Related Opioids” (2024).
Several values for one entry are separate records, joined by “and”; a condition that tells them apart may be missing. Identical values can stand only once.

Assays:
[1] = tested on: human erythrocytes; experiment: Hemolytic activity; conditions: 10 mg/mL, 2 h, normalized to SGX, mean ± SEM
[2] = Binding of polyanionic cyclodextrins to fentanyl (binding constant, NMR); conditions: see SI
[3] = tested on: hemoglobin-free human erythrocyte ghosts; experiment: Solubilization of phospholipids; conditions: CD 25 mg/mL, normalized to SGX, mean ± SEM
[4] = Pharmacokinetics of 14C-SBX-Me (IV or IM), plasma by AMS; conditions: for AUC0-t: t = 24 h
[5] = Tissue distribution of 14C-SBX-Me; conditions: at the Cmax, adjusted to total tissue weight
[6] = tested on: kidneys; conditions: rats, therapeutic dose levels; no deterioration in renal function; cited from earlier work

In the case of `O=C(O)CCCSC[C@H]1O[C@@H]2O[C@H]3[C@H](O)[C@@H](O)[C@@H](O[C@H]4[C@H](O)[C@@H](O)[C@@H](O[C@H]5[C@H](O)[C@@H](O)[C@@H](O[C@H]6[C@H](O)[C@@H](O)[C@@H](O[C@H]7[C@H](O)[C@@H](O)[C@@H](O[C@H]8[C@H](O)[C@@H](O)[C@@H](O[C@H]1[C@H](O)[C@H]2O)O[C@@H]8CSCCCC(=O)O)O[C@@H]7CSCCCC(=O)O)O[C@@H]6CSCCCC(=O)O)O[C@@H]5CSCCCC(=O)O)O[C@@H]4CSCCCC(=O)O)O[C@@H]3CSCCCC(=O)O`, the Hemolytic activity [1] is reported as 338.1% ± 68.9.
With `CC(CSC[C@H]1O[C@@H]2O[C@H]3[C@H](O)[C@@H](O)[C@@H](O[C@H]4[C@H](O)[C@@H](O)[C@@H](O[C@H]5[C@H](O)[C@@H](O)[C@@H](O[C@H]6[C@H](O)[C@@H](O)[C@@H](O[C@H]7[C@H](O)[C@@H](O)[C@@H](O[C@H]8[C@H](O)[C@@H](O)[C@@H](O[C@H]1[C@H](O)[C@H]2O)O[C@@H]8CSCC(C)C(=O)O)O[C@@H]7CSCC(C)C(=O)O)O[C@@H]6CSCC(C)C(=O)O)O[C@@H]5CSCC(C)C(=O)O)O[C@@H]4CSCC(C)C(=O)O)O[C@@H]3CSCC(C)C(=O)O)C(=O)O` (stereo partly drawn) the “binding between SBX-Me and fentanyl (NMR results)” value [2] was “strong binding”, the Phospholipid solubilization [3] was “no significant difference” and the AUC0-inf ([4]; 16 mg/kg IM, SBX-Me alone) was 56500 ± 20500 ng·h/mL. The CL ([4]; 16 mg/kg IM, SBX-Me alone) was 5.107 ± 1.7 mL/min/kg, the Vd ([4]; 16 mg/kg IM, SBX-Me alone) was 5.8963 ± 0.523 L/kg and the t1/2dist ([4]; 16 mg/kg IM, SBX-Me alone) was 49.8 min and 49.8 ± 10.8 min. For the same compound, the t1/2elim ([4]; 16 mg/kg IM, SBX-Me alone) was 882.6 ± 156 min, the tmax ([4]; 16 mg/kg IM, SBX-Me alone) was 18 ± 0 min and the Cmax ([4]; 16 mg/kg IM, SBX-Me alone, plasma) was 14700 ± 2600 ng/mL. For the same compound, the AUC0-t ([4]; 16 mg/kg IM, SBX-Me alone) was 42000 ± 7710 ng·h/mL, the CL ([4]; 16 mg/kg IV) was 3.675 ± 0.232 mL/min/kg and the Vd ([4]; 16 mg/kg IV) was 2.3492 ± 0.231 L/kg. For the same compound, the AUC0-inf ([4]; 16 mg/kg IV, plasma) was 72700 ± 4540 ng·h/mL, the Cmax ([4]; 16 mg/kg IV, plasma) was 49800 ± 4400 ng/mL and the t1/2dist ([4]; 16 mg/kg IV, plasma) was 19.8 min and 19.8 ± 19.2 min. The t1/2elim ([4]; 16 mg/kg IV, plasma) was 444 min and 443 ± 27.6 min, the AUC0-t ([4]; 16 mg/kg IV, plasma) was 66900 ± 4760 ng·h/mL and the “proportion of the administered dose in all other tissues” value [5] was “less than 1%”. For the same compound, the “proportion of the administered dose in kidney” value [5] was 2.5%, the “proportion of the administered dose in liver” value ([5]; mean) was 5.2% and the Hemolytic activity [1] was 7.7% ± 13.8.
For `O=C(O)CCSC[C@H]1O[C@@H]2O[C@H]3[C@H](O)[C@@H](O)[C@@H](O[C@H]4[C@H](O)[C@@H](O)[C@@H](O[C@H]5[C@H](O)[C@@H](O)[C@@H](O[C@H]6[C@H](O)[C@@H](O)[C@@H](O[C@H]7[C@H](O)[C@@H](O)[C@@H](O[C@H]8[C@H](O)[C@@H](O)[C@@H](O[C@H]1[C@H](O)[C@H]2O)O[C@@H]8CSCCC(=O)O)O[C@@H]7CSCCC(=O)O)O[C@@H]6CSCCC(=O)O)O[C@@H]5CSCCC(=O)O)O[C@@H]4CSCCC(=O)O)O[C@@H]3CSCCC(=O)O`, the Hemolytic activity [1] was 534.2% ± 110.1.
In the case of Sugammadex, the “histopathological effect in the kidneys” value [6] is listed as “histopathological degeneration in the kidneys”.
